This data set deals with HeLa cells.

With `CCN(CC)CCCC(C)Nc1c2ccc(Cl)cc2nc2ccc(OC)cc12` (centres unmarked) [QC, quinacrine], the “cytotoxicity in combination with DMAG17 (FIG. 5)” value (6 h, DMAG17 1 μM with quinacrine 10 or 20 μM) is “synergistic cytotoxicity”. Further, the “cytotoxicity in combination with heat shock (FIG. 6)” value (heat shock 43° C., 30 min with QC) is “Synergistic cytotoxicity”.

These data come from patent US8486697B2, “Inducing cell death by inhibiting adaptive heat shock response” (Incuron, LLC, priority 2008, dated 2013).
